ChEMBL document CHEMBL1156263, “Single agents with designed combination chemotherapy potential: synthesis and evaluation of substituted pyrimido[4,5-b]indoles as receptor tyrosine kinase and thymidylate synthase inhibitors and as antitumor agents” (J Med Chem, 2010)

Assay: Inhibition of Escherichia coli thymidylate synthase

Question: Which IC50 does the source give for `Cc1nc(=O)c2cc(CN(C)c3ccc(C(=O)N[C@@H](CCC(=O)O)C(=O)O)s3)ccc2[nH]1` [RALTITREXED] here?
Answer: 2.3 µM
